Literature values in US10624877B2, “Composition and method for treatment of symptoms associated with various skin conditions” (priority 2011, dated 2020).

Columns and labels:
[1] = in vivo; cited from earlier work
[2] = in vivo; cited from earlier work; remark: listed apart in the source
[3] = in vivo; cited from earlier work; remark: listed apart in the source
skin = settings: human exposure studies and clinical experience; cited from earlier work

| Substance | phototoxicity or photosensitization [1] | effects on reproduction [2] | changes in growth, histopathologic observations or hematologic values [3] | sensitization, phototoxicity, photosensitization (skin) |
| --- | --- | --- | --- | --- |
| PEG-8 stearate | no evidence of phototoxicity or photosensitization | negative for effects on reproduction | no significant changes | – |
| PEG-2 stearate | no evidence of phototoxicity or photosensitization | – | – | – |
| glyceryl stearate SE | – | – | – | non-sensitizing, non-phototoxic and non-photosensitizing |
